The test system of the test is HCT116p53KO cells. Nature of the test: Short-term viability under targeted therapy with or without ibrutinib (MTT). In kind it is cell-based, human. Conditions: 25 μg/ml bevacizumab, 10 μg/ml cetuximab or 75 μg/ml panitumumab alone, 72 hr.

Take “cetuximab: monoclonal antibody used in anti-cancer therapy for targeting EGFR”: the cell viability entry is recorded as “does not affect”.
